US20260384439A1, “[1,2,4]-TRIAZOLO[4,3-B]PYRIDAZINE DERIVATIVES USEFUL AS A MEDICAMENT” (published 2026)
pIC50: −log10 of the molar value. Read-outs that look alike come from different tables or passages of the source. Marks after values point to notes of the source that are not given here.

Chains of the proteins cited; added tags and fusions are not shown.
UniProt P0DMS8, whole entry: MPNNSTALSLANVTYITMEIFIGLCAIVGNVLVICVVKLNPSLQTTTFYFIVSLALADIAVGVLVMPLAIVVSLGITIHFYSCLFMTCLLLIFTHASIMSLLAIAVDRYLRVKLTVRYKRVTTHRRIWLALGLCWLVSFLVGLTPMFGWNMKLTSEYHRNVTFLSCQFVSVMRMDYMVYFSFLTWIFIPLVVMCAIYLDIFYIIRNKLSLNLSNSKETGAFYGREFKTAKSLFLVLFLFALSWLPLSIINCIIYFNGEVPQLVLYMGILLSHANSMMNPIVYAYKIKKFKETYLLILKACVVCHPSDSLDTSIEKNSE
UniProt P29275, whole entry: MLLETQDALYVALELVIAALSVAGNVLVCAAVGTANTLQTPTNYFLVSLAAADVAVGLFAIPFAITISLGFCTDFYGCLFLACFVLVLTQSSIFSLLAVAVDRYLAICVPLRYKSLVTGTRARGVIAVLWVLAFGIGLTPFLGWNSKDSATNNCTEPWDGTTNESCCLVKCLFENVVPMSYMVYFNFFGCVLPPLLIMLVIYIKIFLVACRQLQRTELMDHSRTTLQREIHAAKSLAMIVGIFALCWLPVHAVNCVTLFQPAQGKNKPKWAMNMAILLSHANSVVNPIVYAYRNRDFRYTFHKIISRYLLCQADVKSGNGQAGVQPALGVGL
UniProt P30542, whole entry: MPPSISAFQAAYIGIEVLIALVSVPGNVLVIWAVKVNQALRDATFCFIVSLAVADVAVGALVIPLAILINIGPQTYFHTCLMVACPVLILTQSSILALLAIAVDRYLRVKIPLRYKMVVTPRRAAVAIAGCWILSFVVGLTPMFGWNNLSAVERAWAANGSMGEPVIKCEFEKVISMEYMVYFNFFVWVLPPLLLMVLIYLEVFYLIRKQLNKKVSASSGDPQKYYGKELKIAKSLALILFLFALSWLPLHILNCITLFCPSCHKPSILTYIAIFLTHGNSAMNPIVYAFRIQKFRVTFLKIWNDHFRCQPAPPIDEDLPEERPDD

Legend:
[1] = target: T1, A3AR (Homo sapiens, UniProt P0DMS8); experiment: Adenosine receptor A3AR antagonism radioligand assay ([125I]-AB-MECA); conditions: read-out: Potency Class A3AR (IC50), [125I]-AB-MECA 0.15 nM, r.t., 120 min, HEK-293 cells
[2] = tested on: A549 (human lung carcinoma); experiment: Antiproliferative activity of cisplatin with compound (175), MTS assay, A549
[3] = tested on: PANC-1 (human pancreatic cancer); experiment: Antiproliferative activity of cisplatin with compound (175), MTS assay, PANC-1
[4] = tested on: ciliated hair cells of organs of Corti; experiment: Otoprotection in ex vivo cultured organs of Corti (hair cell death by ototoxins); conditions: for hair cell death: 24 hrs
[5] = tested on: MDA-435 (human breast cancer); experiment: Antiproliferative activity of cisplatin with compound (175), MTS assay, MDA-435
[6] = Stability noted in HPLC analysis of final compounds
[7] = target: T1, A3AR; experiment: Panel of 168 GPCRs, PathHunter β-arrestin EFC: A3AR; conditions: antagonist mode; 0.1 μM compound (175) (FIG. 2)
[8] = target: T1, A3AR; experiment: A3AR functional assay, agonist mode (cAMP, HTRF); conditions: 1 nM to 3.3 μM compound (175); no stimulus
[9] = target: human recombinant A2BAR (Homo sapiens, UniProt P29275); experiment: Adenosine receptor A2BAR antagonism radioligand assay ([3H]-CPX); conditions: FIG. 3
[10] = target: human recombinant A1AR (Homo sapiens, UniProt P30542); experiment: Adenosine receptor A1AR antagonism radioligand assay ([3H]-CCPA); conditions: FIG. 3
[11] = target: human recombinant A2AAR (Homo sapiens, UniProt P29274); experiment: Adenosine receptor A2AAR antagonism radioligand assay ([3H]-CGS); conditions: FIG. 3
[12] = tested on: panel of 168 GPCRs; experiment: Panel of 168 GPCRs, PathHunter β-arrestin EFC: all other GPCRs; conditions: agonist and antagonist mode; 0.1 μM compound (175) (FIG. 2)
[13] = read-out: Cisplatine IC50, compound (175) 0.0 μM
[14] = read-out: Cisplatine IC50, compound (175) 0.3 μM
[15] = read-out: Cisplatine IC50, compound (175) 1.0 μM
[16] = read-out: IC50 of compound (175) alone, no cisplatin

CCC(CC)CNc1cc(Nc2ccc(OC)nn2)c2nnc(C(C)C)n2n1
pIC50 [1]: > 9.00

cisplatin
change of cisplatin cytotoxicity with compound (175) [2]: slightly increased
change of cisplatin IC50 with compound (175) [3]: doubling of the cisplatin IC50 value
pIC50 [3, 13]: 4.87
pIC50 [3, 14]: 4.60
pIC50 [3, 15]: 4.69
pIC50 ([3]; read-out: Cisplatine IC50, compound (175) 3.0 μM): 4.70
pIC50 ([3]; read-out: Cisplatine IC50, compound (175) 10.0 μM): 4.62
pIC50 ([3]; read-out: Cisplatine IC50, compound (175) 30.0 μM): 4.53
hair cell death ([4]; cisplatin 20 μM): induced the death of hair cells
change of cisplatin cytotoxicity with compound (175) [5]: slightly increased
pIC50 [5, 13]: 4.95
pIC50 [5, 14]: 5.19
pIC50 [5, 15]: 5.25

CCC(CC)Nc1cc(Nc2ccc(Cl)nn2)c2nnc(C(C)C)n2n1
pIC50 [1]: > 9.00

CCC(CC)Nc1cc(NC(=O)Cc2ccccn2)c2nnc(C(C)C)n2n1
pIC50 [1]: 8.00 to 9.00

CCC(CC)CNc1cc(Nc2cccnn2)c2nnc(C3CC3)n2n1
pIC50 [1]: > 9.00

CCC(CC)Nc1cc(NC(=O)Oc2ccccc2)c2nnc(C(C)C)n2n1
HPLC (stability remark in place of or beside purity) ([6]; alkaline conditions): Unstable^b

CSCCCNc1cc(NCc2ccccc2)c2nnc(C(C)C)n2n1
HPLC (stability remark in place of or beside purity) ([6]; acidic conditions): Unstableª

CCC(CC)Nc1cc(Nc2cccnn2)c2nnc(C3CC3)n2n1
inhibition of A3AR among 168 GPCRs [7]: fully inhibited
agonist effect on A3AR [8]: no agonist effect was detected
pIC50 [2, 16]: < 4.00
pIC50 [3, 16]: < 4.00
prevention of hair cell death ([4]; 0.1-1 μM compound (175) with cisplatin 20 μM, gentamycin 100 μM or neomycin 3 mM): prevented cell death
level of cell death, ototoxin vs ototoxin + compound (175), statistics ([4]; cisplatin, gentamycin or neomycin): statistically different
selectivity of A3AR compared to A2BAR [9]: selective of A3AR
selectivity of A3AR compared to A1AR [10]: selective of A3AR
pIC50 [5, 16]: < 4.00
selectivity of A3AR compared to A2AAR [11]: selective of A3AR
impact on all other GPCRs [12]: not or marginally impacted

CCC(CC)CCNc1cc(Nc2cccnn2)c2nnc(C(C)C)n2n1
pIC50 [1]: > 9.00

CCC(CC)Nc1cc(NC(=O)Cc2ccncc2)c2nnc(C(C)C)n2n1
pIC50 [1]: > 9.00

CCC(CC)Nc1cc(Nc2ncncc2OC)c2nnc(C(C)C)n2n1
pIC50 [1]: 6.00 to 7.00

CCC(CC)Nc1cc(Nc2ccnc(Cl)n2)c2nnc(C(C)C)n2n1
pIC50 [1]: > 9.00

c1ccc(CNc2cc(NC3CC3)nn3c(C4CC4)nnc23)nc1
HPLC (stability remark in place of or beside purity) ([6]; alkaline conditions): 88%^b (unstable)

CCC(CC)CNc1cc(Nc2ccc(Cl)nn2)c2nnc(C(C)C)n2n1
pIC50 [1]: > 9.00

CCC(CC)Nc1cc(Nc2cc(OC)ncn2)c2nnc(C(C)C)n2n1
pIC50 [1]: > 9.00

gentamycin
hair cell death ([4]; gentamycin 100 μM): induced the death of hair cells

[2H]C([2H])([2H])Oc1ccc(Nc2cc(NC(CC)CC)nn3c(C(C)C)nnc23)nn1
pIC50 [1]: > 9.00

CCC(CC)CNc1cc(Nc2ccc(OC)nn2)c2nnc(C3CC3)n2n1
pIC50 [1]: > 9.00

CCC(CC)Nc1cc(Nc2ccnc(OC)n2)c2nnc(C(C)C)n2n1
pIC50 [1]: > 9.00

CCC(CC)Nc1cc(Nc2ccc(OC)nn2)c2nnc(C(C)C)n2n1
pIC50 [1]: > 9.00
